In the library only some 1.5% were active in any assay of this set; here they are far more common.
PGC1a acetyl inh – PGC1a acetylation modulation, inhibitor mode; U2OS PGC1a acetylation, AlphaScreen anti-acetyl-lysine; with virally co-expressed GCN5 acetyltransferase; inhibition, % at 15.6 µM; 350,000 compounds, 0.17% hits; AID 651687;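 active = every replicate shows inhibition of at least 40%; inconclusive = mean inhibition at least 40% but some replicate below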;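 also: 0% = neutral control wells and 100% = positive control wells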
Env fusion inh – inhibitors of HIV Env-mediated cell fusion; HeLa-JRFL Env/CEM21 cell fusion, luciferase; inhibition, % at 12.3 µM; 360,000 compounds, 1.1% hits; AID 651610;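 active = mean replicate inhibition score of at least 50 and every replicate individually at or above 50; inconclusive = only one of the two criteria met; inactive = mean below 50 and not all replicates reaching 50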;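 also: 0% = plate neutral controls and 100% = maraviroc near 300 nM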
UUG fidelity – modulators of start codon recognition fidelity in yeast | S. cerevisiae UUG-firefly luciferase reporter, luminescence/redox ratio | activity score, % at 18.7 µM | 350,000 tested, 0.13% active;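 active = replicate mean at a twofold rise or more, about +100% in these data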;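 also: firefly luciferase made from a UUG start codon reports start codon fidelity; reporter light over untreated wells divided by growth signal over untreated wells; some hits fall short of that in this replicate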
FN deposition inh – fibronectin deposition inhibition | inhibition, % at 12.6 µM | 350,000 compounds, 0.086% hits | AID 743247 | AH1F fibroblasts, Alexa488-fibronectin deposition fluorescence, overnight;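 active = mean inhibition across replicates of 30% or more, regardless of how many single replicates reach that level; inconclusive = mean under 30% yet at least half of replicates reach 30%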;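 also: positive control wells lacked labelled fibronectin entirely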
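test system = AH1F fibroblasts assembling fluorescent fibronectin matrix | quantity = 10000 AH1F cells per well | buffer or medium = DMEM plus 2% serum, read in PBS | doses = single dose, pinned | incubation = 1 h cell attachment, overnight exposure to compound and label | detection = fluorescence at 485 nm excitation, 525 nm emission | read-out basis = inhibition from reduced deposited-fibronectin fluorescence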
miR-122 sensor – blocks miR-122 activity in Huh7 sensor cells | Huh7 miR-122 Renilla luciferase sensor, 48 h; neutral wells = 0, positive control = 100 | activation (reporter increase), % at 12.5 µM | 340,000 compounds, 0.3% hits | AID 602342;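 active = mean replicate activation score at least 90 and every replicate individually at or above 90; inconclusive = only one of the two criteria met; inactive = neither criterion met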;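 also: higher luciferase means less miR-122 activity so hits act as miR-122 inhibitors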
Cneo AK release – Cryptococcus neoformans lysis via adenylate kinase release; C. neoformans lysis, adenylate kinase release luminescence, 4 h; normalised: neutral wells 0, clomiphene wells 100; lysis activity, % at 15 µM; 360,000 compounds, 0.2% hits;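 active = mean lysis activity across replicates of at least 80%, whatever share of replicates individually reach that level; inactive = mean lysis activity below 80%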
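Material: C. neoformans cells; Schedule: 4 h static compound exposure, 37 °C, read 1 h post-reagent; Measured by: adenylate kinase release luminescence; Read-out: signal increase indicating cell lysis; Controls: Clomiphene as positive lysis control.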
An asterisk follows results filed as active; ? = inconclusive; / = no result; [ ] = another dose, or the depositor's remark.

#1 CCC(=O)N1[C@@H]2c3cccc(=O)n3C[C@H]1[C@H](CO)[C@H]2C(=O)NCc1ccccc1
#2 CCC(=O)N1[C@@H]2Cn3c(cccc3=O)[C@H]1[C@@H](C(=O)NCc1ccccc1)[C@@H]2CO
#3 CCNC(=O)[C@@H]1[C@@H](CO)[C@@H]2Cn3c(cccc3=O)[C@H]1N2C(=O)Nc1cc(F)ccc1F
#4 Cc1nc(C)n(C(C)CNC(=O)c2ccccc2)n1 (stereo not given)
#5 COc1ccc(NC(=O)c2sc(SCc3ccccc3)nc2N)cc1
#6 O=C(c1ccc(S(=O)(=O)N2CCCCC2)cc1)N1CCc2ccccc2C1
#7 O=C(Nc1ccc(Cl)c(C(F)(F)F)c1)[C@@H]1CC=C[C@@H]2CCN(Cc3ccc(Cl)c(Cl)c3)C(=O)[C@@H]21
#8 CC(C)CC#Cc1ccc2c(c1)O[C@@H](CN(C)C(=O)C1CCOCC1)[C@@H](C)CN([C@H](C)CO)S2(=O)=O
#9 O=C(N/N=C/c1ccc(Cl)s1)C(O)c1ccccc1 (stereo not given)
#10 O=C(N/N=C/c1cc(Br)cs1)C(O)c1ccccc1 (stereo not given)
Assay by compound | 1 | 2 | 3 | 4 | 5 | 6 | 7 | 8 | 9 | 10
Env fusion inh | / | / | / | -9 | -41 | -1 | 84* | -17[16.7 µM] | -30 | -68
FN deposition inh | / | / | 5 | 3 | -6 | / | -20 | / | 5 | 2
Cneo AK release | 93* | 99* | / | -1 | 5 | -1 | 1 | -8 | 0 | 2
UUG fidelity | / | / | / | -31 | -20 | -3 | -7 | 6 | -10 | 14
miR-122 sensor | 0[16.7 µM] | 21[16.7 µM] | / | / | -1 | -6 | -2 | 7[16.7 µM] | 123* | 46
PGC1a acetyl inh | / | / | -8 | / | -1 | / | -1 | -10 | 17 | 1

#11 CN(C)c1cc[n+](Cc2c(Cl)cccc2Cl)cc1
#12 CN(C)c1cc[n+](CC[n+]2ccc(N(C)C)cc2)cc1
#13 O=C(CCn1cccc1)Nc1ccc(OC(F)(F)F)cc1
#14 c1ccc2c(-c3csc(-c4ccncc4)n3)c[nH]c2c1
#15 COc1ccc(CNC(=O)C(c2ccco2)N(C(=O)c2csnn2)c2cccc(C)c2C)cc1 (stereo not given)
#16 Cc1cccnc1NC(=O)c1ccc(S(=O)(=O)N2CCCC2)cc1
#17 CCC(Sc1nc2ccsc2c(=O)n1-c1ccc(Cl)c(C)c1)C(=O)NCc1ccco1 (stereo not given)
#18 C[C@@H]1CCCCO[C@@H](CN(C)Cc2ccncc2)[C@@H](C)CN([C@H](C)CO)C(=O)c2cc(NC(=O)c3ccncc3)ccc2O1
#19 CC(C)NC(=O)Nc1ccc2c(c1)C(=O)N([C@@H](C)CO)C[C@@H](C)[C@H](CN(C)Cc1ccncc1)OCCCC[C@@H](C)O2
#20 C[C@H]1CCCCO[C@H](CN(C)Cc2ccncc2)[C@@H](C)CN([C@@H](C)CO)C(=O)c2cc(NC(=O)Nc3ccccc3)ccc2O1
Assay by compound | 11 | 12 | 13 | 14 | 15 | 16 | 17 | 18 | 19 | 20
Env fusion inh | 58* | 1 | -5 | -145 | / | -14 | 65* | -4[16.7 µM] | 4[16.7 µM] | -5[16.7 µM]
FN deposition inh | 2 | -1 | -1 | 33* | / | -4 | -1 | 1 | / | -5
Cneo AK release | 1 | 3 | / | -3 | 1 | -1 | 7 | 93* | 111* | -1
UUG fidelity | -12 | -19 | / | -23 | -7 | -21 | -9 | / | / | /
miR-122 sensor | -3 | -1 | / | -6 | 97* | -3 | -3 | -4[16.7 µM] | -1[16.7 µM] | 4[16.7 µM]
PGC1a acetyl inh | / | -5 | / | -3 | -2 | -3 | / | 6 | 2 | -5

#21 C[C@@H]1CCCCO[C@H](CN(C)Cc2ccncc2)[C@@H](C)CN([C@@H](C)CO)C(=O)c2cc(NC(=O)Nc3ccccc3)ccc2O1
#22 C[C@H](CO)N1C[C@H](C)[C@H](CN(C)Cc2ccccc2)OCCCC[C@H](C)Oc2ccc(NC(=O)Nc3ccccc3)cc2C1=O
#23 C[C@@H]1CN([C@@H](C)CO)C(=O)CCCn2cc(nn2)CO[C@@H]1CN(C)Cc1ccccc1C(F)(F)F
#24 CN(c1ccccc1)S(=O)(=O)c1ccc(Cl)nc1
#25 C/C(Cc1ccccc1)=N\NC(=O)CNC(=O)c1cccc(F)c1
#26 COc1ccccc1S(=O)(=O)Cc1ccc(C(=O)N2CCN(c3cccc(Cl)c3)CC2)o1
Assay by compound | 21 | 22 | 23 | 24 | 25 | 26
Env fusion inh | -43[16.7 µM] | 75*[16.7 µM] | 15[16.7 µM] | 0 | 4 | 98*
FN deposition inh | 1 | 5 | -8 | -9 | -4 | -1
Cneo AK release | 81* | 43 | / | / | -2 | 0
UUG fidelity | / | 48 | / | / | -17 | -12
miR-122 sensor | 26[16.7 µM] | 8[16.7 µM] | -6[16.7 µM] | 2 | -10 | 16
PGC1a acetyl inh | -10 | -4 | -11 | ? | 11 | -12

Record cards, from the list above:
C[C@@H]1CN([C@@H](C)CO)C(=O)CCCn2cc(nn2)CO[C@@H]1CN(C)Cc1ccccc1C(F)(F)F is listed as Env fusion inh = 15[16.7 µM]; FN deposition inh = -8; Cneo AK release = /; UUG fidelity = /; miR-122 sensor = -6[16.7 µM]; PGC1a acetyl inh = -11
C[C@H](CO)N1C[C@H](C)[C@H](CN(C)Cc2ccccc2)OCCCC[C@H](C)Oc2ccc(NC(=O)Nc3ccccc3)cc2C1=O is listed as Env fusion inh = 75*[16.7 µM]; FN deposition inh = 5; Cneo AK release = 43; UUG fidelity = 48; miR-122 sensor = 8[16.7 µM]; PGC1a acetyl inh = -4
